Earlier results as cited in publication PMC544850.

Amino acid sequences for entries named in this document (tags omitted). Residues count along the entry.
UniProt P01589, 22-240, chain 1 of 3: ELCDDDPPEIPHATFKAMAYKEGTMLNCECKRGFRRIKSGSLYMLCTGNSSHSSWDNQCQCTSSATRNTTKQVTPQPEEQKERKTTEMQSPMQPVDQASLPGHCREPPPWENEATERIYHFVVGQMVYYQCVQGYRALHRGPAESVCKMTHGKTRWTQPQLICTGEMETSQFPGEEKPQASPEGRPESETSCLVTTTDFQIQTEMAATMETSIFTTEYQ
UniProt P60568, 21-153: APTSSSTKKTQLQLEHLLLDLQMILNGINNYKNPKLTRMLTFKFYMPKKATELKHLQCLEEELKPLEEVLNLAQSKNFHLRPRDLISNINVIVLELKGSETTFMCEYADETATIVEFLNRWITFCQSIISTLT

Target: IL2R (Homo sapiens) (UniProt P01589)

Kd: 0.01 nM
Substance: IL2 (from UniProt P60568)
